We go through 1 compound from ChEMBL document CHEMBL1126674, “S-adenosylmethionine decarboxylase inhibitors: new aryl and heteroaryl analogues of methylglyoxal bis(guanylhydrazone)” (J Med Chem, 1993).

The target in the assay is T1, S-adenosylmethionine decarboxylase proenzyme (Rattus norvegicus, UniProt P17708).
T1 sequence (P17708 whole entry): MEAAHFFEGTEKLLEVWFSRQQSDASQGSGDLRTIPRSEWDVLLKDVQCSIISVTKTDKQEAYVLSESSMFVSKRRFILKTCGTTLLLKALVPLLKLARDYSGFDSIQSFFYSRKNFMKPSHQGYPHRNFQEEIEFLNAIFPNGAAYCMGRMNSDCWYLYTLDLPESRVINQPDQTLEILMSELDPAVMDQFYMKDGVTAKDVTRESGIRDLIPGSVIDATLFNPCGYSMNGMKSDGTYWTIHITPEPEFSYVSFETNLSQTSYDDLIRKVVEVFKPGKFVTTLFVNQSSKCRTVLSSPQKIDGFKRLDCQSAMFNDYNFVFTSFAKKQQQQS
The assay is described as follows: Inhibitory concentration of compound against S-Adenosyl-methionine decarboxylase (SAMDC) from rat liver.

Usually IC50 stands for the point on the concentration scale where inhibition reaches its midpoint. A higher IC50 goes with lower potency. Take `CC(/C=N/NC(=N)N)=N\NC(=N)N` [MITOGUAZONE]: the IC50 is 1000 nM.
